Like-named read-outs stand apart in the source and are kept apart here.
Key:
[1] = molecular target: T1, Plasmodium falciparum enoyl-Acyl carrier protein (ACP) reductase (PfENR) (Plasmodium falciparum, UniProt Q9BH77); details: for Ki: Dixon plot
T1 sequence (Q9BH77 22-432): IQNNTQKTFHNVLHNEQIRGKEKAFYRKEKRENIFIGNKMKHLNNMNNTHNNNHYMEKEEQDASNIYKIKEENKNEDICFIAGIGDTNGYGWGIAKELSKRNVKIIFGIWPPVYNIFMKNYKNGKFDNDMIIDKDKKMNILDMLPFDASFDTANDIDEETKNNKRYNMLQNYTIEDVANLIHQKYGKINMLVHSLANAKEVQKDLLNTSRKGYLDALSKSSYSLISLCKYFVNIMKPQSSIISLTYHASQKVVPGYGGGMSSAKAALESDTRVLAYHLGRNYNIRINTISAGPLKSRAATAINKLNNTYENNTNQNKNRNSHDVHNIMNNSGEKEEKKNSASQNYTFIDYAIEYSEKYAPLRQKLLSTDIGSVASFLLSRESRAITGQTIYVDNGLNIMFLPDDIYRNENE

PfENR = molecular target: T2, PfENR (Plasmodium falciparum, UniProt Q9BH77); assay type: binding; details: read-out: Kd of EGCG in the presence of triclosan, saturation kinetics; 10 μM triclosan
T2 construct: The overexpression of PfENR was carried out [22]; made in house
Description: Binding studies of [^3H] […] Briefly, for gel filtration chromatography, 2 ml Sephadex G-25 column was packed and equilibrated with the reaction buffer. For each run 50 μl of the reaction mixture was loaded and 20 fractions of 100 μl were collected at 0.25 ml/min flow rate. All the fractions were spotted on Whatman 3 filter paper and dried before taking the counts. In the filter binding assay method, the reaction mixtures were directly applied on the activated Polyvinylidene difluoride (PVDF) membrane fixed in a filtration assembly. The filters were washed with 200 μl of reaction buffer and dried. Dried filters were transferred to vials containing 5 ml scintillation fluid and the radioactivity measured using a Hewlett Packard liquid scintillation counter.
To check the binding of [^3H] […] The concentration of [^3H]
[^3H] […] (FIG. 4d) Double reciprocal plot of the same data is shown in the inset.
The binding constants for the above experiments were determined from saturation plots and by Scatchard plot or double reciprocal plot using equation 2a and 2b described under evaluation section.

(−) epigallocatechin gallate [EGCG]
IC50 ([1]; read-out: IC50 [μM] with PfENR, 30 nM PfENR, 200 μM crotonoyl-CoA, 100 μM NADH): 0.25 ± 0.0062 µM
IC50 ([1]; read-out: IC50 values with PfENR, Table 6): 0.25 ± 0.062 µM
IC50 ([1]; read-out: IC50 with PfENR, FIG. 1A): 0.25 ± 0.0062 µM
Ki ([1]; read-out: Ki against crotonoyl-CoA (absence of triclosan)): 79 ± 2.67 nM
Ki ([1]; read-out: Ki in presence of TCL, Ki of the catechin at 50 nM and 100 nM triclosan): 8 ± 0.56 nM
Ki ([1]; read-out: Ki w.r.t. NADH, competitive, NADH 50, 100, 200 μM, crotonoyl-CoA 200 μM): 186 ± 7.98 nM
Kd (PfENR): 89 ± 2.3 nM

— patent US20080161247A1, “Synergistic composition for modulating activity of substrate analogs for NAD+, NADP+, NADH or NADPH dependent enzymes and process thereof” (priority 2006, published 2008)
